Measured values: patent US20250176553A1, “SOLUTION FOR […] AND METHOD OF PRODUCING THEREOF” (OCT, Inc., priority 2022, published 2025)
Where “and” joins values, the source holds several entries; their conditions need not be identical. Equal entries are not always repeated. Where two headings read alike, the source gives them in different places.

Columns and labels:
[1] = tested on: Streptococcus mutans biofilms; settings: average of samples 1-6, 590 nm
Excerpt: (§1) FIGS. 3 to 6 show the experimental results in which Streptococcus mutans strains are actually used. Streptococcus mutans is a facultative anaerobe and a gram-positive streptococcus. It produces insoluble, sticky glucans that stick to tooth surfaces. It is one of the bacteria that mainly cause dental caries. THB (TODD-HEWITT BROTH) supplemented with 2% (w/v) sucrose was used as the medium. Sucrose is a sugar composed of the monosaccharides glucose and fructose with an α-1,2-glycosidic linkage and one of the disaccharides. THB manufactured by Becton, Dickinson and Company was used. For sucrose, “CASRN” manufactured by FUJIFILM Wako Pure Chemical Corporation was used. The plate used for culture was a Thermo Scientific Nunclon Delta Surface 96 well. The incubator used was a Panasonic multi-gas incubator MCO-5MUV-PJ. Culturing was conducted at 37° C. under an atmosphere of 5% CO2 gas, 5% O2 gas and 90% N2 gas.
(§2) Devices and the like used to measure residual biofilms are described below. For staining, 0.1% Crystal Violet from FUJIFILM Wako Pure Chemical Corporation was used. It was dissolved in distilled water to 0.1% (w/v).
(§3) Life Technologies EVOS XL Core was used as the microscope for photography. […] Co., Ltd. was used as the absorption spectrometer. The data processing software was “SF6” and the absorbance wavelength was 590 nm.
Streptococcus mutans was diluted in 2% sucrose-containing THB and 10 inoculated samples of 100 μL each were plated onto cell culture plates (Thermo Scientific Nunclon Delta Surface 96well). […] No test solution was added to one of the 10 inoculated samples.
The samples were then cultured in a multi-gas incubator for 24 hours to allow biofilms to form on the bottom of each plate. After culturing, the plates were washed with distilled water and stained with 0.1% Crystal Violet solution for 10 minutes. After staining, the plates were washed again with distilled water, dried and then observed and photographed with a bright field inverted microscope.
Crystal Violet was then extracted with 100 μL of 99.5% ethanol (FUJIFILM Wako Pure Chemical Corporation), and the absorbance was measured at a wavelength of 590 nm using an absorption spectrometer grating microplate reader.

[2] = tested on: Streptococcus mutans biofilms; settings: for Absorbance: individual samples 1-6, medium replaced after biofilm formation, further 24 hours
Excerpt: as §1, §2, §3
Streptococcus mutans was diluted in 2% sucrose-containing THB and 10 inoculated samples of 100 μL each were plated onto cell culture plates (Thermo Scientific Nunclon Delta Surface 96well). The samples were then cultured in a multi-gas incubator for 24 hours to allow biofilms to form on the bottom of each plate.
The media were removed and the plates were washed with distilled water 24 hours after the start of cultivation. […] The samples were further cultured in a multi-gas incubator for 24 hours. After culturing, the plates were washed with distilled water and stained with 0.1% Crystal Violet solution for 10 minutes. After staining, the plates were washed again with distilled water, dried and then observed and photographed using a bright field inverted microscope.

Structure (SMILES): [2H]OS(=O)(=O)O[2H] [deuterated sulfuric acid (D2SO4)]
- Absorbance, Average value ([1]; pH 2.3): 0.785
- Absorbance, Average value ([1]; pH 2.7): 0.794
- Absorbance, Average value ([1]; pH 3.0): 0.787
- Absorbance, Average value ([1]; pH 3.3): 0.827
- Absorbance, Average value ([1]; pH 3.7): 0.830
- Absorbance, Average value ([1]; pH 4.0): 0.793
- Absorbance ([2]; pH 0.5): 0.744
- Absorbance ([2]; pH 0.8): 0.752 and 0.795 and 0.782
- Absorbance, Average value ([2]; pH 1.2, average of samples 1-6): 0.783
- Absorbance ([2]; pH 1.2): 0.836 and 0.771
